From US10844349B2 (Albumedix Ltd., priority 2011, dated 2020)

Columns and labels:
[1] = Insoluble aggregate screening: time for A350 to increase by 0.1 AU at 65° C. (cuvette); format: physicochemical; details: for albumin stability (time for A350 to increase by 0.1 AU) with increasing sodium concentration: albumins and variants; for effect of increasing sodium levels on stability: 65° C.
[2] = Soluble aggregates (remaining monomer) by GP-HPLC after 40° C. for 4 weeks; format: physicochemical; details: Example 5; albumin 100-250 mg/mL, pH 6.5, 40° C. for 4 weeks
Protocol: The samples were then aseptically filtered (0.22 μm filter) into sterile 5 mL glass vials and the vials placed in a 40° C. incubator for 4 weeks. An aliquot from each sample was taken out at intervals, diluted to 40 g/L with water and assayed for soluble aggregates by GP-HPLC as per Example 4.

Row | Substance | albumin stability (time for A350 to increase by 0.1 AU) with increasing sodium concentration ([1]; Example 9, pH 6.5, 65° C.) | overall stability compared with HSA ([1]; Example 9, pH 6.5, 65° C.) | effect of increasing sodium levels on stability ([1]; Example 1, albumin 10 mg/mL, 25 mM phosphate) | effect of increasing sodium levels on stability ([1]; Example 2, around 200 mM sodium, pH 6.0-7.0, albumin 10 mg/mL) | monomer content with increasing sodium content [2] | optimum sodium ion concentration [2]
1 | Mature mouse serum albumin: mouse serum albumin, SEQ ID No: 19 | clear trend of increasing stability with increasing sodium concentration at and above 200 mM | not as high as HSA, or HSA variants |  |  |  | 
2 | albumin: recombinant human albumin (batch 1401 in Examples 1-4; purified low-octanoate albumin in Examples 5-11) |  |  | large increase in stability between 145 and 300 mM sodium | sudden increase in stability | clear correlation of increasing monomer content | ≥ 200 mM
3 | wild type human serum albumin: mature HSA (SEQ ID NO: 2), spiked with octanoate equivalent to 4 mM at 100 g/L | observed stability increase with sodium is also valid at this level of octanoate |  |  |  |  | 
